Antibody variant affinities, Ab-95 light chain, assay 2

Target: peptide PDVDLGDISGINAS, taken from heptad repeat 2 (HR2) of SARS-CoV-2 spike.

Ab-95 is the parent antibody, in scFv form: VH, then a 15-residue (Gly4Ser)3 linker, then VL. The heavy chain is unchanged in all variants.
VH: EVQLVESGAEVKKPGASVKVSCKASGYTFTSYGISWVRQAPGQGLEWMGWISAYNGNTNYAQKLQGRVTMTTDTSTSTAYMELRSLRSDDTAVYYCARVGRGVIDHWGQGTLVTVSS
VL: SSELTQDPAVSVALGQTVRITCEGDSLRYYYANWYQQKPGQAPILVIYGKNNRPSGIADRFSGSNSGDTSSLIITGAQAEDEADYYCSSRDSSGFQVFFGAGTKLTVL

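Variants in AAYL52 differ from the parent at up to three CDR positions; double and triple changes were sampled at random. The assay is AlphaSeq: two haploid yeast populations carry antibody and antigen on their surface. Pairs that bind mate more often; barcode pairs of the diploids are counted by sequencing. Each replicate has its own calibration line, from reference interactions of the BCL2 family. Mating was done three times.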

Variants are written as CDR1, CDR2 and CDR3 of the light chain (limits as in the source). Parent: EGDSLRYYYAN, GKNNRPS, SSRDSSGFQVF.
Every variant below is changed at S26 of the VL (sequential numbering).
Affinities are written as log10 Kd with Kd in nM; a lower number is a better binder.
Averages over replicates are reported, and they cover detected replicates only.
A pair that was not seen in any replicate is written "nd"; this usually means weak binding, but a binder can also be missed.
For reference, the parent read 2.31 as the reference entry and 2.25 as a member of this library.

For EGDELRYYYAN / GKNCVPS / SSRDSSGFQVF, the assay gave 4.65 (1 of 3 replicates). For EGDCRRYYYAN / GKNNRPS / SDRDSSGFQVF, the assay gave 5.49 (1 of 3 replicates). For EGDCLKYYYAN / GKNNRPS / SSRDSSHFQVF, the assay gave 3.52 (2 of 3 replicates). For EGDHLRYYYAN / GKNNGPS / SDRDSSGFQVF, the assay gave 3.72 (1 of 3 replicates). The variant EGDYLRYYYAN / GKNERPS / SSRDSSGFQTF gave 3.87 (3 of 3 replicates). The variant EGDLLRYYYAN / GKNNRPS / SSNDSSGRQVF gave nd (0 of 3 replicates). With EGDDLRYYVAC / GKNNRPS / SSRDSSGFQVF the result was 4.03 (2 of 3 replicates). With GGDHIRYYYAN / GKNNRPS / SSRDSSGFQVF the result was 3.20 (3 of 3 replicates).

For EGDKLRCYYAN / GKMNRPS / SSRDSSGFQVF, the assay gave 4.09 (3 of 3 replicates). With EGDWLRHCYAN / GKNNRPS / SSRDSSGFQVF the result was 2.48 (3 of 3 replicates). The variant EGDILRYYYAN / GKNARPS / SSRDSSGVQVF gave 4.57 (2 of 3 replicates). With EGDKLRYYYAN / GKENRPS / SGRDSSGFQVF the result was nd (0 of 3 replicates). The variant EGDQLRYYYAA / GKNNRPK / SSRDSSGFQVF showed 3.92 (1 of 3 replicates). The variant EGDYLRYYYAN / GKKNPPS / SSRDSSGFQVF gave nd (0 of 3 replicates). With EGDLLRYYYAN / GKNNRPS / SSRFSSGFQVF the result was 4.33 (2 of 3 replicates). For EGDWLREYYAN / GKNNRPS / SSRDSSGQQVF, the assay gave 3.37 (3 of 3 replicates).

With EGDHLRYRYAN / GKNNRPS / HSRDSSGFQVF the result was 2.77 (3 of 3 replicates). The variant ELYTLRYYYAN / GKNNRPS / SSRDSSGFQVF showed 3.11 (3 of 3 replicates). The variant EGDGLRYYYAN / GKNNYPS / SSRISSGFQVF showed 3.58 (1 of 3 replicates). For EGDELAYYCAN / GKNNRPS / SSRDSSGFQVF, the assay gave 2.94 (3 of 3 replicates). The variant EGDCLRYYYAN / GKNFRPS / SSRDSLGFQVF gave 2.82 (3 of 3 replicates). The variant EGDRLRYYYAN / GKANRPS / SSRDSSGFQVF showed 3.20 (1 of 3 replicates). The variant EGDQLRYYYAN / GKNNRPS / VSRDSSGFQTF gave 3.31 (3 of 3 replicates). For EGDDLRYWYAN / GKNNRPS / SSRDSSGFQPF, the assay gave nd (0 of 3 replicates).

For ENDWLRYYYMN / GKNNRPS / SSRDSSGFQVF, the assay gave 4.39 (2 of 3 replicates). The variant EGDDLRYYYAN / GKNNRPS / SSRDSSGFQVF gave 2.32 (3 of 3 replicates). For EGDGWYYYYAN / GKNNRPS / SSRDSSGFQVF, the assay gave nd (0 of 3 replicates). The variant EGDCLRYYYAN / GKNNRPP / SSRDSFGFQVF gave 3.66 (1 of 3 replicates). The variant EGDRLRYYYAD / PKNNRPS / SSRDSSGFQVF showed 4.23 (1 of 3 replicates). The variant EGDGCRYYYAN / GKNNRPS / SSRDSNGFQVF showed nd (0 of 3 replicates). For EGDVLIYRYAN / GKNNRPS / SSRDSSGFQVF, the assay gave 3.81 (3 of 3 replicates). For EGDILRVYYAN / GKNNRPS / SYRDSSGFQVF, the assay gave 4.64 (1 of 3 replicates).

For EGMLLRYEYAN / GKNNRPS / SSRDSSGFQVF, the assay gave 2.98 (3 of 3 replicates). The variant EGLFLRYNYAN / GKNNRPS / SSRDSSGFQVF showed 1.48 (3 of 3 replicates). For EGDGLRYYYAN / MKNNRPS / SSFDSSGFQVF, the assay gave 5.32 (1 of 3 replicates). The variant EGDWLRYYYAN / GENNRPS / SSRDYSGFQVF showed 3.59 (3 of 3 replicates). The variant EGDRLRYYYAN / VKNNRPS / SSRDSSGFQFF showed 5.28 (1 of 3 replicates). For EGDWLRYYYAN / GKNNKPS / SSRDSYGFQVF, the assay gave 4.89 (2 of 3 replicates).

Top 5 of the variants detected in all replicates, tightest first:

The variant EGLFLRYNYAN / GKNNRPS / SSRDSSGFQVF showed 1.48 (3 of 3 replicates).
The variant EGDDLRYYYAN / GKNNRPS / SSRDSSGFQVF showed 2.32 (3 of 3 replicates).
The variant EGDWLRHCYAN / GKNNRPS / SSRDSSGFQVF showed 2.48 (3 of 3 replicates).
The variant EGDHLRYRYAN / GKNNRPS / HSRDSSGFQVF showed 2.77 (3 of 3 replicates).
The variant EGDCLRYYYAN / GKNFRPS / SSRDSLGFQVF showed 2.82 (3 of 3 replicates).

As a blank, each scFv also met three strains without target: over library AAYL52, 28% of these pairings were detected, typically at 3.91 and seldom below 2.90.

From the AlphaSeq antibody data of Engelhart et al. 2022 (doi:10.1038/s41597-022-01779-4), copy in the FLAb collection.